Biological target: T1, human dopamine receptor subtype hD3 (Homo sapiens, UniProt P35462)
T1 construct: expressed in transfected cells; host or cells: CHO
Test: Receptor binding assay, [3H]spiperone competition, CHO cell membranes
Conditions: means of 2-8 individual experiments each done as triplicate
Procedure: Receptor binding data were determined when performing competition binding assays with membrane preparations of cloned cells (stably transfected Chinese Hamster Ovary cells (CHO)) expressing the human receptors and the following radioligands: [^3H]spiperone at the human dopamine receptor subtypes hD2long, hD2short, D3, and hD4.4. […].
Selectivity ratios were calculated by division of the Ki values of the various compounds at the respective receptors through the Ki values at the 5HT1a receptor.

Sequences of proteins named here, by UniProt entry; tags and fusion partners are left off.
UniProt P35462, whole entry: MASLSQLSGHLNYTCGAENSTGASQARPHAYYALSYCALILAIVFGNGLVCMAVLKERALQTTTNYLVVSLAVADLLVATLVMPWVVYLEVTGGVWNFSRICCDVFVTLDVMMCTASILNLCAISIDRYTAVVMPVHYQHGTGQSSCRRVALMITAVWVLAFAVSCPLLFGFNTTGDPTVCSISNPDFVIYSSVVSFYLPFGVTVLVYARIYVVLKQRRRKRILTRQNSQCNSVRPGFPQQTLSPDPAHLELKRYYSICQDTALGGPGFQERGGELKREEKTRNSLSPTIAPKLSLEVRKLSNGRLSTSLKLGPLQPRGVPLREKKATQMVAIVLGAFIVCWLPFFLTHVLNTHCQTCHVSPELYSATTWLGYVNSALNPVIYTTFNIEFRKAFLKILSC

SMILES: CCCN(CCC)C1CCc2cccc(O)c2C1 (stereo not drawn) [R-(+)-8-OH-DPAT, reference compound]
- Ki: 43 nM

From US8586603B2, “Aminotetraline derivatives” (priority 2009, dated 2013)
